Experiments:
[1] = set-up: method as in PMID 27992940; settings: cited from earlier work
[2] = tested on: primary porcine brain endothelial cells (PBECs); settings: cited from earlier work
[3] = PAMPA-BBB, prediction of CNS permeability

Substance: Asiaticoside
- Apparent oral bioavailability [1]: less than 1%
- BBB permeability in in vitro BBB model [2]: highly BBB permeable
- PAMPA-BBB (Pe) Experimental permeability ([3]; PBS: DMSO (95 : 5), 18 h, mean ± SEM): 0.26 ± 1.0 10^−6 cm s^−1
- Prediction of CNS penetration ([3]; class from experimental Pe, limits of Di et al., 2003): CNS− (CNS−, low BBB permeation predicted; Pe, 10–6 cm s^−1 < 2.0)

— publication PMC8920630, “Development and Optimization of Nanoemulsion from Ethanolic Extract of Centella asiatica (NanoSECA) Using D-Optimal Mixture Design to Improve Blood-Brain Barrier Permeability” (Evidence-based Complementary and Alternative Medicine : eCAM, 2022)
